Screens from PubChem BioAssay.
UUG fidelity = alters start codon recognition fidelity in yeast | S. cerevisiae UUG-firefly luciferase reporter, luminescence/redox ratio | activity score, % at 18.7 µM | hit rate 0.13% among 350,000 | AID 602363;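 active means replicate mean at a twofold rise or more, about +100% in these data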;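 further: firefly luciferase made from a UUG start codon reports start codon fidelity; reporter light over untreated wells divided by growth signal over untreated wells; some hits fall short of that in this replicate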
PglD DTNB = C. jejuni PglD acetyltransferase inhibitors, primary screen, biochemical, DTNB colorimetric, single point; actives 0.098% (n = 360,000); inhibition, % at 12.5 µM; purified PglD enzyme, DTNB colorimetric CoA detection; UDP-N-acetylbacillosamine N-acetyltransferase PglD (Campylobacter jejuni); AID 602405, 2012; in the data active = inhibition above about 16%, passing the limit was not always enough
DDE Tn7 FP inh = inhibitors of Tn7 peptide binding to fibrin DD(E), primary screen, biochemical, fluorescence polarization, human fibrin, Tn7 probe. Fibrinogen beta chain (Homo sapiens), P02675. FP displacement of FITC-Tn7 peptide from fibrin DD(E); 0% = median of compound wells per plate. inhibition, % at 8.3 µM. actives 0.13% (n = 370,000). AID 720508, 2013;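 active = inhibition above the mean of compounds falling within the control limits plus 3 SD of them, cut at about 14% in these data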;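 also: 0% = plate median of compound wells and 100% = 10 µM Aha-Tn7 peptide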
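Assay system: Fibrin-DD(E) protein isolated from polymerized human fibrin clots; read-out basis: percent inhibition; medium: Tris/NaCl/CaCl2 buffer, pH 7.8; signal: FP measurement; incubation: 10 min plus 3 h, room temperature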
DDE Tn6 FP inh = inhibitors of Tn6 peptide binding to fibrin DD(E), primary screen, biochemical, fluorescence polarization, human fibrin, Tn6 probe; Fibrinogen beta chain (Homo sapiens), P02675; Fibrin DD(E) TRITC-Tn6 fluorescence polarization displacement; inhibition, % at 8.3 µM; actives 0.21% (n = 370,000);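 active = inhibition above a per-campaign cutoff: mean of compounds within control limits plus 3 SD, cut at about 15% in these data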;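 also: 0% = median of all compound wells on the plate and 100% = blocking peptide control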
DDE Tn6 FP ctr = counter-screen hit for Tn6 peptide-fibrin DD(E) binding disruption. inhibition, % at 8.3 µM. AID 720621. actives 2% (n = 680). shares compounds with DDE Tn6 FP inh. TRITC-Tn6 fluorescence polarization displacement; 0% = median of compound wells, not DMSO;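 active = inhibition above the mean of test compounds lying between the control limits plus 3 SD of those, cut at about 14% in these data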;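 also: 0% = median of compound wells and 100% = wells with Aha-Tn7 blocking peptide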
DDE Tn6 confirm = inhibitors of Tn6 peptide binding to fibrin DD(E), confirmation, biochemical, fluorescence polarization, human fibrin, Tn6 probe | shares compounds with DDE Tn6 FP inh | FP displacement of TRITC-Tn6 peptide from DD(E); 0% = per-plate median of test wells | inhibition, % at 8.3 µM | actives 10% (n = 680) | AID 720631, 2013;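 active = inhibition above the mean of compounds lying within the control limits plus 3 SD, cut at about 16% in these data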;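 also: 100% = high control wells holding a competing inhibitor peptide at 10 µM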
Starred values were filed as active, the others as inactive; . = no result given. An excerpt weighted towards active compounds, which were near 0.45% of everything screened.

1: N=c1c[n+](N2CCOCC2)[n-]o1
2: CCC(=O)N[C@@H]1C=C[C@@H](CC(=O)NCCN2CCCCC2)O[C@@H]1CO
3: CCCC(=Nc1ccc(N)cc1)C1=C(O)C(C(=O)OC)C(C)(C)CC1=O (stereo not given)
4: COc1ccccc1CN1CC(C(=O)NCCc2ccc(C)o2)CCC1=O (stereo not given)
5: O=C(COC(=O)CSc1ccc(Br)cc1)NCc1ccco1
6: Cc1cc(Br)ccc1SCC(=O)OCC(=O)NCc1ccco1
assay / compound | 1 | 2 | 3 | 4 | 5 | 6
UUG fidelity | -8 | -21 | -6 | 4 | -1 | -4
PglD DTNB | -1 | 2 | 0 | 0 | -4 | 3
DDE Tn7 FP inh | 1 | . | 4 | 6 | 5 | 1
DDE Tn6 FP inh | 19* | . | 126* | 20* | 1 | 15*
DDE Tn6 FP ctr | -8 | . | 5 | 8 | . | 0
DDE Tn6 confirm | -19 | . | 17* | 4 | . | -1

7: Cc1cccc(S(=O)(=O)N2CCCCN3[C@@H](CO)[C@H](c4ccc(C#CC5CC5)cc4)[C@@H]3C2)c1
8: CCCC(NC(=O)CNC(=O)C(C)(C)C)C(=O)O (stereo not given)
9: Cc1cc(Sc2nc(NC(C)(C)C)nc(N3CCOCC3)n2)nc(Cl)n1
10: CSc1nc(NC(C)(C)C)nc(N2CCOCC2)n1
11: COc1ccccc1-c1ccc2c(c1)[C@@H]1[C@@H](CCN1S(=O)(=O)c1cccc(C)c1)[C@H](CO)N2
12: COc1cc(C(=O)NCC(=O)N/N=C/c2ccco2)cc(OC)c1OC
assay / compound | 7 | 8 | 9 | 10 | 11 | 12
UUG fidelity | 0 | . | . | -10 | -4 | -7
PglD DTNB | -1 | . | . | -7 | 2 | 1
DDE Tn7 FP inh | . | 3 | 0 | -2 | . | 6
DDE Tn6 FP inh | . | 16* | 17* | -3 | . | 27*
DDE Tn6 FP ctr | . | 3 | 5 | . | . | -6
DDE Tn6 confirm | . | 2 | -1 | . | . | -13

13: COc1cc(C(=O)NCC(=O)N/N=C/c2cccc(OC(=O)c3ccco3)c2)cc(OC)c1OC
14: COc1cccc(OCC(=O)Nc2ccncc2)c1
15: COc1cccc(OCC(=O)Nc2ccccc2NC(C)=O)c1
16: O=C(C[C@@H]1CC[C@@H](NS(=O)(=O)c2ccc(F)cc2)[C@@H](CO)O1)N1CCC(Cc2ccccc2)CC1
17: COc1ccccc1NC(=S)NCc1ccc2c(c1)cc(C)n2C
18: CCC(CC)C(=O)NCc1ccc2c(c1)cc(C)n2C
assay / compound | 13 | 14 | 15 | 16 | 17 | 18
UUG fidelity | . | 3 | -13 | 13 | -12 | -8
PglD DTNB | . | -2 | 6 | 0 | 1 | -7
DDE Tn7 FP inh | 0 | -2 | -7 | . | -1 | 5
DDE Tn6 FP inh | 3 | -1 | 17* | . | 2 | 15
DDE Tn6 FP ctr | . | . | -1 | . | . | .
DDE Tn6 confirm | . | . | -2 | . | . | .

Gathered by group, the compounds so far containing a furan ring, fused or not (five)
4: COc1ccccc1CN1CC(C(=O)NCCc2ccc(C)o2)CCC1=O (stereo not given)
5: O=C(COC(=O)CSc1ccc(Br)cc1)NCc1ccco1
6: Cc1cc(Br)ccc1SCC(=O)OCC(=O)NCc1ccco1
12: COc1cc(C(=O)NCC(=O)N/N=C/c2ccco2)cc(OC)c1OC
13: COc1cc(C(=O)NCC(=O)N/N=C/c2cccc(OC(=O)c3ccco3)c2)cc(OC)c1OC
assay / compound | 4 | 5 | 6 | 12 | 13
UUG fidelity | 4 | -1 | -4 | -7 | .
PglD DTNB | 0 | -4 | 3 | 1 | .
DDE Tn7 FP inh | 6 | 5 | 1 | 6 | 0
DDE Tn6 FP inh | 20* | 1 | 15* | 27* | 3
DDE Tn6 FP ctr | 8 | . | 0 | -6 | .
DDE Tn6 confirm | 4 | . | -1 | -13 | .

(cont.)
Assay codes: A = UUG fidelity; B = PglD DTNB; C = DDE Tn7 FP inh; D = DDE Tn6 FP inh; E = DDE Tn6 FP ctr; F = DDE Tn6 confirm
19) Cc1ccccc1NC(=S)NCc1ccc2c(c1)cc(C)n2C
  A: -35 | B: -1 | C: 9 | D: 20* | E: 3 | F: -5

20) Cc1cc2cc(CNC(=O)C(C)Oc3ccccc3)ccc2n1C (stereo not given)
  A: . | B: . | C: -6 | D: 36* | E: 4 | F: 4

21) Cc1cc2cc(CNC(=O)CC(C)C)ccc2n1C
  A: -1 | B: -2 | C: -2 | D: 16* | E: -2 | F: -13

22) COc1cc(OC)c(OC)cc1/C=N/NC(=O)CCc1c(C)n[nH]c1C
  A: 1 | B: 6 | C: 4 | D: 16* | E: -1 | F: -5

23) CC(=O)c1cccc(OCc2cc(C(=O)N3C[C@@H](C)O[C@@H](C)C3)no2)c1
  A: 10 | B: 7 | C: 3 | D: 20* | E: 8 | F: 3

24) COC(=O)[C@]12C=CCN1[C@H](c1ccc(C(F)(F)F)cc1)c1c(c3ccccc3n1S(=O)(=O)c1ccc(C)cc1)C2
  A: . | B: . | C: -9 | D: 17* | E: 2 | F: 4

25) COC(=O)[C@]12C=CCN1[C@@H](c1ccc(Cl)cc1)c1c(c3ccccc3n1S(=O)(=O)c1ccc(C)cc1)C2
  A: . | B: . | C: -7 | D: 28* | E: 2 | F: 3

26) COC(=O)[C@]12C=CCN1[C@@H](c1ccc(C(F)(F)F)cc1)c1c(c3ccccc3n1S(=O)(=O)c1ccc(C)cc1)C2
  A: . | B: . | C: 10 | D: 12 | E: . | F: .

27) COCC(=O)N1[C@@H]2CN(C(=O)c3ccncc3)c3ccccc3[C@@H]2[C@@H]1CO
  A: -17 | B: -1 | C: . | D: . | E: . | F: .

28) CC(C)NC(=O)N(C)C[C@H]1Oc2cc(C#Cc3cccc(F)c3)ccc2S(=O)(=O)N([C@H](C)CO)C[C@H]1C
  A: 15 | B: -3 | C: . | D: . | E: . | F: .

29) O=C(C1CCCC1)N1CCCCN2[C@H](CO)[C@@H](c3ccc(C#CC4CC4)cc3)[C@H]2C1
  A: 18 | B: -1 | C: . | D: . | E: . | F: .

30) CC(C1CC1)N(Cc1ccccc1)C(=O)NC(=O)c1cccc(F)c1 (stereo not given)
  A: -8 | B: -1 | C: -1 | D: 0 | E: . | F: .

31) CC(C1CC1)N(Cc1ccccc1)C(=O)NC(=O)c1ccccc1 (stereo not given)
  A: . | B: . | C: 0 | D: 18* | E: 0 | F: 1

32) O=C(C[C@@H]1CC[C@H]2[C@@H](COC[C@@H](O)CN2Cc2ccc(Cl)cc2)O1)NCCc1ccccc1
  A: -11 | B: -1 | C: . | D: . | E: . | F: .

33) CC(Oc1ccc(F)cc1)C(O)CCN(C)C (stereo not given)
  A: . | B: . | C: 0 | D: 24* | E: -7 | F: -8

(more compounds)
Assay codes: A = UUG fidelity; B = PglD DTNB; C = DDE Tn7 FP inh; D = DDE Tn6 FP inh; E = DDE Tn6 FP ctr; F = DDE Tn6 confirm
34) CC(C)Oc1ccc(C(CC(=O)NCCCN(C)C)c2ccc(F)cc2)cc1 (stereo not given)
  A: . | B: . | C: 0 | D: 7 | E: . | F: .

35) COc1ccc(NC(=O)N[C@@H]2CC[C@@H](CCNC(=O)Cc3ccncc3)O[C@H]2CO)cc1
  A: 0 | B: -1 | C: . | D: . | E: . | F: .

36) O=C1CC(Nc2ccc(N3CCOCC3)cc2)C(=O)N1c1ccccc1 (stereo not given)
  A: -24 | B: -2 | C: . | D: . | E: . | F: .

37) O=C1CC(Nc2ccc(N3CCOCC3)cc2)C(=O)N1Cc1ccccc1 (stereo not given)
  A: . | B: . | C: 4 | D: 20* | E: 2 | F: 0

38) CC(C)CC#Cc1ccc2c(c1)O[C@H](CN(C)Cc1cccc(F)c1)[C@H](C)CN([C@@H](C)CO)S2(=O)=O
  A: -5 | B: 2 | C: . | D: . | E: . | F: .

39) CC(=O)N1N=C(c2ccncc2)OC12CCCCCC2
  A: -13 | B: 7 | C: 6 | D: 16* | E: 10 | F: 7

40) O=C(C[C@@H]1CC[C@@H]2[C@H](COC[C@H](O)CN2C(=O)c2cccnc2)O1)NCc1ccc(Cl)cc1
  A: 18 | B: 9 | C: . | D: . | E: . | F: .

41) O=C(COC(=O)CCCCCN=C1NS(=O)(=O)c2ccccc21)Nc1ccc(Cl)c(Cl)c1
  A: . | B: . | C: 1 | D: 29* | E: 7 | F: 5

42) COc1ccc(C(CNC(=O)c2ccc(S(=O)(=O)N(C)C)cc2)N(C)C)cc1 (stereo not given)
  A: . | B: . | C: 2 | D: -1 | E: . | F: .

43) CCN(c1ccccc1)S(=O)(=O)c1cc(C(=O)NCC(c2ccc(OC)cc2)N(C)C)ccc1C (stereo not given)
  A: 11 | B: 2 | C: 6 | D: 17* | E: -1 | F: -8

44) CO[C@@H]1CN(C)C(=O)c2cc(NC(=O)C3CC3)ccc2OC[C@H](C)N(Cc2nccs2)C[C@H]1C
  A: 13 | B: 6 | C: . | D: . | E: . | F: .
